Where two headings read alike, the source gives them in different places.
Tests used:
[1] = target: dopamine D2 receptor (D2R) (Rattus norvegicus, UniProt P61169); settings: for plateau value of striatum-to-cerebellum ratio of ^11C-raclopride: not statistically significant
Description: Because of limited availability of the test drug, the 60 mg/kg dose group was scanned only with ^11C-raclopride.
After drug administration and about 20 min before each microPET scan, animals were anesthetized with isoflurane (Pharmachemie BV, Haarlem, Netherlands). […] Both tracers were injected as a slow bolus (1 ml of saline-diluted tracer solution infused during a period of 1 min), using a Harvard-style injection pump.
Two rats were scanned in each scan session. They were positioned on heating mats in a microPET Focus 220 system, in transaxial position above each other with their brains in the field of view. Body temperature of the animals was kept close to normal with electronic temperature controllers. Heart rate and oxygen level of the blood during the scan were monitored using pulse oximeters (PulseSense, Nonin). […] A list mode protocol was used with a 76-min acquisition time.
Image reconstruction was performed using microPET Manager 2.3.3.6 (Siemens). The PET data were split according to position along the y-axis, so that a separate data set was acquired for each animal. The list mode data of the emission scans were reframed in a dynamic sequence of 6 × 10, 4 × 30, 2 × 60, 1 × 120, 1 × 180, 4 × 300, and 3 × 600 s (with an additional 960-s frame for the rat that was injected first). The data were reconstructed per time frame employing an iterative reconstruction algorithm (OSEM2D with Fourier rebinning, 4 iterations, and 16 subsets). […] Data sets were corrected for decay, random coincidences, scatter, and attenuation.
In ^11C-raclopride scans of the brain, three-dimensional regions of interest (ROIs) were manually drawn over the left and right striatum and cerebellum, using the program ASIPro 6.3.3.0 (Siemens). […] Time-activity curves (TACs) were generated for these regions (Fig. 1). The results are expressed as dimensionless standardized uptake values (PET-SUV), defined as [(tissue activity concentration (MBq/g) × body weight (g) / injected dose (MBq)]. Brain tissue was assumed to have a specific gravity of 1 g/ml.
Plateau values for the striatum-to-cerebellum ratio were derived from this curve fit.

Protein sequences, listed by entry. Tags and fused reporters are not part of them. Lines headed by an entry give the natural chain unless they say otherwise; changes in a name come on top.
UniProt P61169, whole entry: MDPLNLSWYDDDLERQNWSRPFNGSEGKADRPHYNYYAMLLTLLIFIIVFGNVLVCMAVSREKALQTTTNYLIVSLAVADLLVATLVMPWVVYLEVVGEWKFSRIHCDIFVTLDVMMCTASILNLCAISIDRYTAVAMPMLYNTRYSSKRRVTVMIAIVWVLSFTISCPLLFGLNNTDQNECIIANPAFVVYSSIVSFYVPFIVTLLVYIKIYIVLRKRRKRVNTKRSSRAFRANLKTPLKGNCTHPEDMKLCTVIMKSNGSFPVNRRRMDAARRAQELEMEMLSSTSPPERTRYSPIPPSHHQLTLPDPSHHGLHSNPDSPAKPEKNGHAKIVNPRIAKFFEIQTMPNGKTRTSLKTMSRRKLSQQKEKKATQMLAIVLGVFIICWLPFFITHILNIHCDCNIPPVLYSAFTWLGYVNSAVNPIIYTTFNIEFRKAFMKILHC

[2] = system: sigma-1R; settings: ref Sahlholm et al. [2013]; Pettersson et al. [2010]; cited from earlier work

## CCCN1CCC(c2cccc(S(C)(=O)=O)c2)CC1 [pridopidine, 4-[3-(methylsulfonyl)phenyl]-1-propylpiperidine]
[1]; 3 mg/kg pridopidine
  plateau value of striatum-to-cerebellum ratio of ^11C-raclopride: appeared to be increased
[1]; 15 mg/kg pridopidine
  plateau value of striatum-to-cerebellum ratio of ^11C-raclopride: slight decrease
[1]; 60 mg/kg pridopidine
  target-to-nontarget ratio of ^11C-raclopride: significant decrease
[1]; 60 mg/kg pridopidine s.c.
  D2R occupancy (striatum-to-cerebellum ratio): 66%
[1]; 60 mg/kg pridopidine, mean ± S.D.
  Target binding of the radioligand (striatum-to-cerebellum ratio at plateau minus one): 0.96 ± 0.10
[1]; 60 vs 3 mg/kg
  dose for significant D2R occupancy relative to dose required for sigma-1R occupancy: 20 fold
[2]
  affinity for sigma-1R relative to D2R: about 100 fold

— article PMC4537502 (Psychopharmacology, 2015)
